How the values were obtained:
fibronectin [1] = target: fibronectin (UniProt P02751); assay: ELISA; wells coated with 10 μg/ml purified fibronectin in 0.05 M Na2CO3 pH 9.0; 0.03125-2 μM GST or GST-tagged OspC variants, 1 hr at ambient temperature; goat anti-GST and HRP-conjugated anti-goat IgG; estimated KD from a fit of OD405
fibronectin [2] = target: fibronectin (UniProt P02751); assay: SPR; Biacore 3000; fibronectin on a CM5 chip; 0-500 nM untagged OspC variants injected at 10 μl/min, 25°C; 1:1 Langmuir model; KD from the average koff divided by kon of each run

Sequences of proteins named here, by UniProt entry; tags and fusion partners are left off. Residues count along the entry.
UniProt P02751, 32-2477: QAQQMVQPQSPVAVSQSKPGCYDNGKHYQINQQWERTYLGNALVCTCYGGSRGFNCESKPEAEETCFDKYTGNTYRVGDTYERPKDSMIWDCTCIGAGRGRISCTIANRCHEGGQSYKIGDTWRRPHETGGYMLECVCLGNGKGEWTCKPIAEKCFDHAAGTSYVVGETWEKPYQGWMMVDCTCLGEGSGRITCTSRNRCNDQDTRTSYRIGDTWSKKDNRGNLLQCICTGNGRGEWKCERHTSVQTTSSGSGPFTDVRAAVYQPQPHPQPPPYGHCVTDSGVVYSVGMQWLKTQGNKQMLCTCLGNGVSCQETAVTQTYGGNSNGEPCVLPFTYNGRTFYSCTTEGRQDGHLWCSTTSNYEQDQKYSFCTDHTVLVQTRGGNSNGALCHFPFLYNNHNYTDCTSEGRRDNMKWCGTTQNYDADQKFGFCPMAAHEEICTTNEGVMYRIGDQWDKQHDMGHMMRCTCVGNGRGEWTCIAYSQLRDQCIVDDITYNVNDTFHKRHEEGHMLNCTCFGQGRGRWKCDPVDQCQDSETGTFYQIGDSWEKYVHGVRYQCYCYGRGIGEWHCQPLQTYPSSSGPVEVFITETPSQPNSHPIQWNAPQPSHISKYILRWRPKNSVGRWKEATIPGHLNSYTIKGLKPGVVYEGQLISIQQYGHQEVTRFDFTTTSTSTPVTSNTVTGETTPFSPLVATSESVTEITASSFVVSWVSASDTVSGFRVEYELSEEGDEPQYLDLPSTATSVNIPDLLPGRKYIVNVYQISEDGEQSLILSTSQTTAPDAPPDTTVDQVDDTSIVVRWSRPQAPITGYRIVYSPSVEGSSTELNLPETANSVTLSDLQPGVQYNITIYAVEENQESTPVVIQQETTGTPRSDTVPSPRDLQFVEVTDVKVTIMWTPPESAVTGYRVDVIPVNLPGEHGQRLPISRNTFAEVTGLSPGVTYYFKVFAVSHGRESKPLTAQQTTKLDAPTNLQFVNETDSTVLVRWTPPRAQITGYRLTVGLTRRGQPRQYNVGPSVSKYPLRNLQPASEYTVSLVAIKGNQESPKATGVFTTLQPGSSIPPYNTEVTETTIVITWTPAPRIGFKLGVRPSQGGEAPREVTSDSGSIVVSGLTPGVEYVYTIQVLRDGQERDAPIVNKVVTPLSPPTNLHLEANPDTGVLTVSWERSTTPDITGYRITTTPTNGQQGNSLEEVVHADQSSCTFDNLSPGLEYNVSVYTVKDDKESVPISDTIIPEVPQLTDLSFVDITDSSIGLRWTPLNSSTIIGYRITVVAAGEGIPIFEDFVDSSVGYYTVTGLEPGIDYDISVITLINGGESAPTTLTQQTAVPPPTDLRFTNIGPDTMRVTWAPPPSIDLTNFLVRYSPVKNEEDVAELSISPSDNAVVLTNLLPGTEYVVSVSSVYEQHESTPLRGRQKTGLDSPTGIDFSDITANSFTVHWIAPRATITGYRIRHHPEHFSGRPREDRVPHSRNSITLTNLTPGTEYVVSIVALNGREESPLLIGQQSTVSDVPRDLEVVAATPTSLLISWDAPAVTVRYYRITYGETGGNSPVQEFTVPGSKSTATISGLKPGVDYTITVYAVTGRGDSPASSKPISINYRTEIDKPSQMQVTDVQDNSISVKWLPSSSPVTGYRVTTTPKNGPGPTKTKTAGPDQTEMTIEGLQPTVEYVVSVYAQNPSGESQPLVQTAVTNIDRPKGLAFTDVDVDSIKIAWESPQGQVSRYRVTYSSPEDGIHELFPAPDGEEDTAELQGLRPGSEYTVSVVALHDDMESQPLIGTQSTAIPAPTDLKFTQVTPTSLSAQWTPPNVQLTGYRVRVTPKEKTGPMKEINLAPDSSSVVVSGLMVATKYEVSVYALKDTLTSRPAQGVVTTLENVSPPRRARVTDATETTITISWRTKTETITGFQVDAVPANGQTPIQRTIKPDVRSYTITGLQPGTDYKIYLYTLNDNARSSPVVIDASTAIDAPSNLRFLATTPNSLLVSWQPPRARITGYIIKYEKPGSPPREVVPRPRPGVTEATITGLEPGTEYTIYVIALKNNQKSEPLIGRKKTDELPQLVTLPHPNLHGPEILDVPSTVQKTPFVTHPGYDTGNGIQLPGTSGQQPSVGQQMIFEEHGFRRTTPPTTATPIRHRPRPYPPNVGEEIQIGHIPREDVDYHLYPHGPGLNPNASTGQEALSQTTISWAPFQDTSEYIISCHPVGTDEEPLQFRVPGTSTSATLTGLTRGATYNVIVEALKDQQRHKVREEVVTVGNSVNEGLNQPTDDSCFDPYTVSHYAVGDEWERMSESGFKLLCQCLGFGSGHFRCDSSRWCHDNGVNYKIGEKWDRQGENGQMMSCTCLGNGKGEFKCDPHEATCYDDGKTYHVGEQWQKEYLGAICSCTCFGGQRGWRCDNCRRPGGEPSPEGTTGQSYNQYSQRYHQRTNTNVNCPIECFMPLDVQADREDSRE

Substance | Kd (fibronectin [1]) [nM] | Kd (fibronectin [2]) [nM] | koff (fibronectin [2]) [s⁻¹] | kon (fibronectin [2]) [M⁻¹ s⁻¹]
GST-OspCPBr (natural protein; other documents disagree on this pair) | 900 |  |  | 
OspCPBr, untagged (natural protein; other documents disagree on this pair) |  | 710 | 0.13 | 192000
OspC_(N40-D10/E9), untagged (natural protein; other documents disagree on this pair) |  | 300 | 0.13 | 451000

— PMC7255614
